# Measured values from US20040115734A1 (VLAAMS INTERUNIVERSITAIR INSTITUUT VOOR BIOTECHNOLOGIE VZW, published 2004).
# B1: APP-C83 (other, UniProt P05067 688-770, looked up)
# chain: LVFFAEDVGSNKGAIIGLMVGGVVIATVIVITLVMLKKKQYTSIHHGVVEVDAAVTPEERHLSKMQQNGYENPTYKFFEQMQN
# notes: domain: α-cleaved C-terminal fragment (APP-C83); The methods name the vector pSFV-APPC87; also called α-cleaved stub
# Biological target: T1, GST alone (UniProt P08515 = GST)
# T1 construct: Negative control, immobilized on glutathione beads; also called GST-beads
# Assay: GST pull-down of [35S]-labeled C-terminal APP-stubs expressed in neurons; data not shown
binder,measurement,value
B1,binding result,no binding
